Assay results published in patent US10052359B2, “Composition for enhancing memory and learning function and/or cognitive function” (KIRIN KABUSHIKI KAISHA, priority 2014, dated 2018).

System: scopolamine model of poor memory
Experiment: Y-maze test (spontaneous alternation behavior) in mice given scopolamine
Format: in vivo
Conditions: synthetic peptide 0.1-3 μmol/kg orally; scopolamine 0.80 mg/kg i.p.
Protocol: FIG. 1A illustrates a summary of methods of evaluating the memory and learning function and the cognitive function. To 6-week-old male CD-1 mice, 1 mg/kg of the peptide extract or 0.1-3 μmol/kg of a synthetic peptide is orally administered forcibly into stomach and 40 minutes later 0.80 mg/kg of scopolamine hydrochloride was administered intraperitoneally to cause memory impairment. 20 minutes after the intraperitoneal administration of scopolamine, the Y-maze test was conducted to evaluate the spontaneous alternation behavior.
Mice originally have a habit of selecting a route different from the route selected immediately before. Therefore a mouse placed in a Y-maze having 3 arms equivalent in width, length, and the like normally enters the arm different from the arm that the mouse entered immediately before. The Y-maze test is a test to evaluate the short-term memory using the habit of mice.
In the Y-maze test, a Y-maze was used as an experimental apparatus having 3 arms each connected at an angle of 120 degrees and each having a length of 25 cm, a wall high of 20 cm, and a floor width of 5 cm.
Mice were placed in the tip of one of the aims in the Y-maze and the orders of the arms that the mice entered when the mice were allowed to search freely for 8 minutes were recorded. […] 10 mice per group were used for the experiment and the average and the standard error were determined. […]

Row | Substance | enhancing effect on the memory and learning function and the cognitive function (spontaneous alternation behavior rate)
1 | tryptophan-leucine (WL; listed as Bos taurus) | found to have an enhancing effect on the memory and learning function and the cognition function in a concentration-dependent manner
2 | tryptophan-valine (WV; listed as Bos taurus) | found to have an enhancing effect on the memory and learning function and the cognition function in a concentration-dependent manner
